Values of other authors in patent US12023174B2, “Detecting cyanide exposure based on thiocyanate measurement in saliva” (dated 2024).
Read-outs that look alike come from different tables or passages of the source.

Assays:
[1] = in vivo

Row | Molecule | mean blood carbon monoxide concentration (all 109 fire victims) [mmol per liter] | mean blood carbon monoxide concentration (fire victims who died) [mmol per liter] | mean blood carbon monoxide concentration (fire victims who survived) [mmol per liter] | half-life [1] [h]
1 | [C-]#[O+] | 1.5±1.7 | 2.8±2.0 | 0.7±0.7 | –
2 | thiocyanate | – | – | – | 140 to 336
